How the values were obtained:
[1] = target: T1, Hu-IFN-α/β receptor on bovine MDBK cells (Bos taurus, UniProt Q04790+Q95141); settings: literature (16, 28, 63); cited from earlier work
T1 construct: endogenous in cells; host or cells: MDBK
T1 sequence (Q04790 25-560): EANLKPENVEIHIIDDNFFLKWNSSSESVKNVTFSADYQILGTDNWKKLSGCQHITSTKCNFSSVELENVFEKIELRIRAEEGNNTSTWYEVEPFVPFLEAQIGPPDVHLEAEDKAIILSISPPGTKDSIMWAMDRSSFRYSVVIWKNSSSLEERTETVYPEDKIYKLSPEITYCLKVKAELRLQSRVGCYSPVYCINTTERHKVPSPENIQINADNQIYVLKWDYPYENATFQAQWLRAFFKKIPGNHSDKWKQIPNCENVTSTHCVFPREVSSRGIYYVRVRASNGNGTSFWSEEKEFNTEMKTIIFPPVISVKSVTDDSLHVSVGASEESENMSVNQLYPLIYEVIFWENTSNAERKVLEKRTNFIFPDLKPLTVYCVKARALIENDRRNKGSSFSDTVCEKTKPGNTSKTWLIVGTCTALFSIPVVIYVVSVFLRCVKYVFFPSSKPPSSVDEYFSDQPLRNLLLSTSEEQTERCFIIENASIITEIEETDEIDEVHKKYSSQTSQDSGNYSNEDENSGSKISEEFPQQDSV
T1 sequence (Q95141 27-530): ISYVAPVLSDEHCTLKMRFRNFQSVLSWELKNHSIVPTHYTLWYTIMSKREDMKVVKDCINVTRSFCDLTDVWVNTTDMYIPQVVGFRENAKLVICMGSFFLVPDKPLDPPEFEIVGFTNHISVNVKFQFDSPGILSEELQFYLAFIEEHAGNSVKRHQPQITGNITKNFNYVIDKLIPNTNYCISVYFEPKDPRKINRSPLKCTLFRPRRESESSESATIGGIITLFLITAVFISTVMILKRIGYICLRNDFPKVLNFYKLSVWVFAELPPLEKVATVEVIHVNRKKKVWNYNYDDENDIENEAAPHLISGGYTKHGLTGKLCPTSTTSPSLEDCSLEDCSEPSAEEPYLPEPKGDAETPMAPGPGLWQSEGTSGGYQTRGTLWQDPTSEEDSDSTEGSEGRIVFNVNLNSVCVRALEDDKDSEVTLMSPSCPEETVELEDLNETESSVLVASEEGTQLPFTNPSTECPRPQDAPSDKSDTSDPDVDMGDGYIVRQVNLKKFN

[2] = test system: vesicular stomatitis virus and bovine MDBK cells; settings: literature (16, 28, 63); cited from earlier work
[3] = target: T2, Hu-IFN-α/β receptor on human Daudi cells (Homo sapiens, UniProt P17181+P48551); assay: Binding of 32P-labelled interferon to human Daudi cells; settings: unlabelled interferon as competitor
T2 construct: to human Daudi cells was performed as described previously (17); endogenous in cells; host or cells: Daudi
T2 sequence (P48551 27-515): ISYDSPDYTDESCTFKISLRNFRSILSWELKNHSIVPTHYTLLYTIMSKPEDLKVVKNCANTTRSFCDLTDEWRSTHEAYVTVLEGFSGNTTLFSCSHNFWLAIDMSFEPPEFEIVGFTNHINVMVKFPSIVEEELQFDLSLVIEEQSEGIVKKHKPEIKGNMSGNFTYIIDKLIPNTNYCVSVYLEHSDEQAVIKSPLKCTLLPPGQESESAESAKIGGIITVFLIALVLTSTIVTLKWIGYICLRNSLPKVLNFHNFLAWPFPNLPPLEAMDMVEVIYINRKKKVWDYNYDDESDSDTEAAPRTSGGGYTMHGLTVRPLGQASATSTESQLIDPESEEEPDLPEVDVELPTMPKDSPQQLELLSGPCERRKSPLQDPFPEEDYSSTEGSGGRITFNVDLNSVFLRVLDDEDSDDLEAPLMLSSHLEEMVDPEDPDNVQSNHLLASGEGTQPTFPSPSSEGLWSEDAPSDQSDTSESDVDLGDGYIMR
T2 sequence (P17181 28-557): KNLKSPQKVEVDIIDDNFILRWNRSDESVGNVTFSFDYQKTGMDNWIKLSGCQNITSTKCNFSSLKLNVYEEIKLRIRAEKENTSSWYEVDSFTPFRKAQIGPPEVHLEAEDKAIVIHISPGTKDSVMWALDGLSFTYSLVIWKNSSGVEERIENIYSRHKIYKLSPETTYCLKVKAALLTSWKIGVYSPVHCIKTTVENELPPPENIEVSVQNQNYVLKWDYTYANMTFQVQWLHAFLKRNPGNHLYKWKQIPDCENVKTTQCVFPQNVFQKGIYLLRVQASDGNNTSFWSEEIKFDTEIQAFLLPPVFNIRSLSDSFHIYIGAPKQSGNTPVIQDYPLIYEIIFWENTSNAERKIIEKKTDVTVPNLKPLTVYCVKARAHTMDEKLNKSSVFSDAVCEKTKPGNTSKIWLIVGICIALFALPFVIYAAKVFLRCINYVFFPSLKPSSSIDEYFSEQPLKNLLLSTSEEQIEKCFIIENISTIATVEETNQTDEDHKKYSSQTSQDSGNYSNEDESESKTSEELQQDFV

Row | Substance | binding to MDBK cell line [1] | antiviral activity on MDBK cell line [2] | competition for binding of [32P]Hu-IFN-αA-P derivatives [3]
1 | Hu-IFN-αA: human leukocyte (alpha) interferon species A, unmodified, not phosphorylatable | binds | high antiviral activity | 
2 | Hu-IFN-β: human fibroblast (beta) interferon |  |  | competitively blocked

From patent US5986061A (priority 1995, dated 1999)
